Experimental data reported in patent US20160151380A1, “THERAPIES FOR DISEASES CAUSED BY ARTHROPOD-BORNE PARASITES” (THE REGENTS OF THE UNIVERSITY OF CALIFORNIA, priority 2013, published 2016).

Protein sequences, listed by entry. Tags and fused reporters are not part of them.
UniProt P45983, whole entry, species assumed: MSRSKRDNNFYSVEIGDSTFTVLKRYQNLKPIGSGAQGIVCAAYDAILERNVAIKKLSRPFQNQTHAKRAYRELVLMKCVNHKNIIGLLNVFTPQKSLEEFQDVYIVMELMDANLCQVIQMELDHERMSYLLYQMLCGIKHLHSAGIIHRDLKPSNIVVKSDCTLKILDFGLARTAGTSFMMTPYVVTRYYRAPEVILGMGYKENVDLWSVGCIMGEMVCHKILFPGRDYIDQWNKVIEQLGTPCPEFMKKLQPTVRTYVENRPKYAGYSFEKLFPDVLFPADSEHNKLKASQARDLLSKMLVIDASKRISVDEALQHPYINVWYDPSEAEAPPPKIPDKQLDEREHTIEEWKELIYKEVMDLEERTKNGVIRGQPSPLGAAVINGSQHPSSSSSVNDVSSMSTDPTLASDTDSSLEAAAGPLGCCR
UniProt P53779, whole entry, species assumed: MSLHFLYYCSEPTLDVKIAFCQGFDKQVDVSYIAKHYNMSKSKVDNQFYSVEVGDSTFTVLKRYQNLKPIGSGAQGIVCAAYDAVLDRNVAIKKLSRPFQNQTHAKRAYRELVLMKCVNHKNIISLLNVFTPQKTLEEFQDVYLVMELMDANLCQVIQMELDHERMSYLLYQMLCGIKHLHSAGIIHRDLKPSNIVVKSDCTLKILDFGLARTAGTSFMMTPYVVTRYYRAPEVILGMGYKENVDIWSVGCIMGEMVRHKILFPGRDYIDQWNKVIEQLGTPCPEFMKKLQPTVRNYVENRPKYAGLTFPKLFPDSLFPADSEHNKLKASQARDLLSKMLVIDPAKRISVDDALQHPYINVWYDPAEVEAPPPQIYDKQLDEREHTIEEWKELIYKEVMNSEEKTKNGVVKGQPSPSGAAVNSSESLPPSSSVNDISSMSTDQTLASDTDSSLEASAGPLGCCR

How the values were obtained:
[1] = tested on: Anopheles stephensi p38 MAPK; assay: MK2 phosphorylation in LPS-stimulated ASE cells (western blot); format: cell-based; details: ASE cells pre-incubated with 10 μM inhibitor, 2 h later 1 μg/ml LPS
[2] = biological target: JNK1 (Homo sapiens, UniProt P45983); details: cited from earlier work
[3] = biological target: JNK3 (Homo sapiens, UniProt P53779); details: cited from earlier work
[4] = biological target: T1, PKCepsilon (Homo sapiens, UniProt Q02156); details: cited from earlier work
T1 sequence (Q02156 1-737): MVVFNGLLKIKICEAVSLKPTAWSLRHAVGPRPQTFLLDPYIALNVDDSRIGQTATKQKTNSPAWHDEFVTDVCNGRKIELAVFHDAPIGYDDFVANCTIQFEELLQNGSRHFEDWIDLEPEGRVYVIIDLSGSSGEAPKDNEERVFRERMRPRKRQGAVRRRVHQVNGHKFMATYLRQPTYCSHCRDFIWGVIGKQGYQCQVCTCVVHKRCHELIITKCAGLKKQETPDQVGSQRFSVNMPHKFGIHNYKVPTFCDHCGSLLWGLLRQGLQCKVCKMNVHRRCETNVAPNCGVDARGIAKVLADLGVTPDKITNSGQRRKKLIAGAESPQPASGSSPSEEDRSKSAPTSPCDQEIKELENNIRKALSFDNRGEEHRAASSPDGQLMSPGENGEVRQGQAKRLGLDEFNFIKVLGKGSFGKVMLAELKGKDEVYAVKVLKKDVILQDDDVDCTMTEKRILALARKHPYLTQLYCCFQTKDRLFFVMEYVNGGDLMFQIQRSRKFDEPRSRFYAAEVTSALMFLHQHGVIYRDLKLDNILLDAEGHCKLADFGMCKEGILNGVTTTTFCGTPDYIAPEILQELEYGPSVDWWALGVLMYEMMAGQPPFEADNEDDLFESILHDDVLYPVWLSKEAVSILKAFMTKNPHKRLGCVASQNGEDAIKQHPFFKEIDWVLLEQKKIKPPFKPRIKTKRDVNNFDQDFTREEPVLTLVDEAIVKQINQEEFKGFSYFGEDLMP

## Cc1ccc(-n2nc(C(C)(C)C)cc2NC(=O)Nc2ccc(OCCN3CCOCC3)c3ccccc23)cc1 [BIRB 796, 1-[5-tert-butyl-2-(4-methylphenyl)pyrazol-3-yl]-3-[4-(2-morpholin-4-ylethoxy)naphthalen-1-yl]urea]
[1]
  p-MK2 levels: undetectable

## Cc1cc(NC(=O)c2cccc(NC(=O)/C=C/CN(C)C)c2)ccc1Nc1nccc(-c2cccnc2)n1 [JNKIN8]
[2]
  IC50: < 40 nM
[3]
  IC50: < 40 nM

## O=C(N[C@@H]1CNCCC[C@H]1OC(=O)c1cc(O)c(C(=O)c2c(O)cccc2C(=O)O)c(O)c1)c1ccc(O)cc1 [Ophiocordin]
[4]
  IC50: 20 nM
